The source of these data is patent publication US10780081B2, “Method of treating multiple sclerosis employing a LSD1-inhibitor” (ORYZON GENOMICS, S.A., priority 2016, dated 2020).

The chains behind the UniProt entries cited, without tags or fusion partners.
UniProt P27338, whole entry: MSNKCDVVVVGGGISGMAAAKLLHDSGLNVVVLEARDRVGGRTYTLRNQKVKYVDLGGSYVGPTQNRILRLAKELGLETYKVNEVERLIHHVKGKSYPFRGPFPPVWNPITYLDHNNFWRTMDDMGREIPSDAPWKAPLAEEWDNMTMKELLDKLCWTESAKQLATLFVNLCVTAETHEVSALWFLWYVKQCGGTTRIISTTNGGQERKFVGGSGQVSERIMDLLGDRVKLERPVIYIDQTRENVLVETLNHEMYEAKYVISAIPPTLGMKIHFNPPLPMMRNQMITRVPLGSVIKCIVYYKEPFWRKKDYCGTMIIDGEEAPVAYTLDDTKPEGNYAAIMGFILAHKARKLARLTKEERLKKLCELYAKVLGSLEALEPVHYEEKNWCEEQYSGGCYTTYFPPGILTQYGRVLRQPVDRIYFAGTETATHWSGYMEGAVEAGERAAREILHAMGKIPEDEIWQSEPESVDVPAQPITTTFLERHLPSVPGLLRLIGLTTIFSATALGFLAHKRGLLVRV
UniProt P21397, whole entry: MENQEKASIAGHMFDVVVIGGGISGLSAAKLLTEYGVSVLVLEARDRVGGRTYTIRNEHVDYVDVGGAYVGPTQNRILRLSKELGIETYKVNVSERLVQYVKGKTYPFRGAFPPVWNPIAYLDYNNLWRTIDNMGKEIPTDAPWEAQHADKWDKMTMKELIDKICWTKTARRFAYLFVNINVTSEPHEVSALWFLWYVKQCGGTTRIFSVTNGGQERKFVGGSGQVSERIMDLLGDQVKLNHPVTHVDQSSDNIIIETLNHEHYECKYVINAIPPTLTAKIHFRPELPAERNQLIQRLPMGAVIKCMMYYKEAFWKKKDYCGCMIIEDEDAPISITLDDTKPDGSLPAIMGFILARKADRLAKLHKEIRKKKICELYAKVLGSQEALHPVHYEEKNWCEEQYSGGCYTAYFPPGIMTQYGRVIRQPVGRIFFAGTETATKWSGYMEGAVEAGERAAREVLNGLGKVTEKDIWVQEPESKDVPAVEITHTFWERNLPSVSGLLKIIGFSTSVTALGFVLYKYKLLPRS

Assay [1] has as its target T1, Human recombinant MAO-B (Homo sapiens, UniProt P27338).
T1 construct: purchased Sigma Aldrich
In words: MAO-B kynuramine fluorescence assay. Type of assay: biochemical. From the text: Human recombinant monoamine oxidase proteins MAO-A and MAO-B were purchased from Sigma Aldrich. MAOs catalyze the oxidative deamination of primary, secondary and tertiary amines. In order to monitor MAO enzymatic activities and/or their inhibition rate by inhibitor(s) of interest, a fluorescence-based (inhibitor)-screening assay was set up. 3-(2-Aminophenyl)-3-oxopropanamine (kynuramine dihydrobromide, Sigma Aldrich), a non fluorescent compound was chosen as a substrate. Kynuramine is a non-specific substrate for both MAO-A and MAO-B activities. While undergoing oxidative deamination by MAO activities, kynuramine is converted into 4-hydroxyquinoline (4-HQ), a resulting fluorescent product.
The monoamine oxidase activity was estimated by measuring the conversion of kynuramine into 4-hydroxyquinoline. […]
After leaving the enzyme(s) interacting with the inhibitor, KM of kynuramine was added to each reaction for MAO-B and MAO-A assay respectively, and the reaction was left for 1 hour at 37° C. in the dark. […] The conversion of kynuramine to 4-hydroxyquinoline, was monitored by fluorescence (excitation at 320 nm, emission at 360 nm) using a microplate reader (Infinite 200, Tecan). Arbitrary units were used to measure levels of fluorescence produced in the absence and/or in the presence of inhibitor.
The IC50 values of each inhibitor were calculated with GraphPad Prism Software.

In assay [2] the target is T2, Human recombinant MAO-A (Homo sapiens, UniProt P21397).
T2 construct: purchased Sigma Aldrich
In words: MAO-A kynuramine fluorescence assay. Format: biochemical. From the text:
LSD1 has a fair degree of structural similarity and amino acid identity/homology with the flavin-dependent amine oxidases monoamine oxidase A (MAO-A) and B (MAO-B). To determine the level of selectivity of a LSD1 inhibitor versus MAO-A and MAO-B, the inhibitory activity of a compound of interest against MAO-A and MAO-B can be tested using the method described below:
Human recombinant monoamine oxidase proteins MAO-A and MAO-B were purchased from Sigma Aldrich. MAOs catalyze the oxidative deamination of primary, secondary and tertiary amines. In order to monitor MAO enzymatic activities and/or their inhibition rate by inhibitor(s) of interest, a fluorescence-based (inhibitor)-screening assay was set up. 3-(2-Aminophenyl)-3-oxopropanamine (kynuramine dihydrobromide, Sigma Aldrich), a non fluorescent compound was chosen as a substrate. […]
After leaving the enzyme(s) interacting with the inhibitor, KM of kynuramine was added to each reaction for MAO-B and MAO-A assay respectively, and the reaction was left for 1 hour at 37° C. in the dark. […] The conversion of kynuramine to 4-hydroxyquinoline, was monitored by fluorescence (excitation at 320 nm, emission at 360 nm) using a microplate reader (Infinite 200, Tecan). Arbitrary units were used to measure levels of fluorescence produced in the absence and/or in the presence of inhibitor. […]

SMILES strings stand for the structures. A value given as a limit tells only on which side of the number the result lay.

On to `Fc1ccccc1[C@@H]1C[C@H]1NC1CCNCC1` [ORY-LSD1, N-((1R,2S)-2-(2-fluorophenyl)cyclopropyl)piperidin-4-amine, reference compound], for which the IC50 in assay [1] and in assay [2] was greater than 100 µM each time.
